Sequences of proteins named here, by UniProt entry; tags and fusion partners are left off. A change or cut given only in a name is not applied to a line headed by its entry.
UniProt P07650: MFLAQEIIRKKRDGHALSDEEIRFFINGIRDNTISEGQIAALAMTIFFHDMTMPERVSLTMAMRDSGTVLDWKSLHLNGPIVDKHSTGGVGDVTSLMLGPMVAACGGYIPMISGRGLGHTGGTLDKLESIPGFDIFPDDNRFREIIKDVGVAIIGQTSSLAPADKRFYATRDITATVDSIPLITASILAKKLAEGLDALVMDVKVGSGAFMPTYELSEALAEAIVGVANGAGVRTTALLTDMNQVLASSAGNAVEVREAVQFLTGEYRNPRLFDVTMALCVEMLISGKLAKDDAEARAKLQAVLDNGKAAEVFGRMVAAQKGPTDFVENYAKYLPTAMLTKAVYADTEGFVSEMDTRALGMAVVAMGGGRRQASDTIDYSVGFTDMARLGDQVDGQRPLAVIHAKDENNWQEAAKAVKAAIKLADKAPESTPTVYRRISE

According to paper PMC12435400, “Thymidine Phosphorylase Inhibitory Potential and Molecular Docking Studies of Secondary Metabolites Isolated From Fernandoa adenophylla (Wall. ex G. Don) Steenis” (Chemistry & Biodiversity, 2025):

Experiments:
[1] = target: T1, recombinant EcTP enzyme (thymidine phosphorylase) (Escherichia coli, UniProt P07650); test: biochemical
T1 construct: purchased
Method: (§1) In this study, we utilized commercially available recombinant EcTP enzyme as a model for TP inhibition assessment due to its structural similarities with mammalian TP enzymes. Spectrophotometric TP inhibition assays were conducted by incubating 0.058 U of EcTP enzyme with 500 µM of test compounds at 30°C for 10 min. Subsequently, 1.5 mM of thymidine substrate was added, and absorbance changes were monitored for 10 min at 290 nm using a microplate reader. […] Mechanistic studies involved incubating the TP enzyme with varying inhibitor concentrations and substrate concentrations ranging from 0.1875 to 1.5 µM. Enzyme activity was assessed by measuring absorbance changes for an additional 10 min. Triplicate experiments were conducted for mechanistic investigations to ensure the results' robustness.

[2] = target: T2, thymidine phosphorylase (EcTP) (Escherichia coli, UniProt P07650); test: biochemical
T2 construct: purchased
Method: Mechanism‐based studies were carried out on the selected compounds, that is, 1, 2, and 5.
as §1
Chemical reactions were examined using kinetic studies to determine their rates, mode of inhibition, and the variables influencing these characteristics. The kind and mechanism of inhibition of derivatives are ascertained here. Test compounds (0.5–500 µM) were incubated with TP (0.058 U/200 µL) for 10 min at 30°C in mechanistic studies. […] Thymidine cleavage was tracked at 290 nm for ten min straight using an ELISA plate reader (SpectraMax 384; Molecular Devices, San Jose, CA, USA).

Structure (SMILES): O=c1[nH]c(=O)c2cc[nH]c2[nH]1 [7‐Deazaxanthine, reference compound]
- IC50 [1]: 15.1 ± 0.1 µM
- Ki [2]: 17.3 ± 0.001 µM
